Molecular target: Histamine H3 receptor (Rattus norvegicus, UniProt Q9QYN8)
Assay: Binding potency was determined by displacement of [3H]N-alpha-methyl histamine from histamine H3 receptor of rat cortical membranes
Assay type: cell membranes, Membrane

Sequences of proteins named here, by UniProt entry; tags and fusion partners are left off. A change or cut given only in a name is not applied to a line headed by its entry.
UniProt Q9QYN8: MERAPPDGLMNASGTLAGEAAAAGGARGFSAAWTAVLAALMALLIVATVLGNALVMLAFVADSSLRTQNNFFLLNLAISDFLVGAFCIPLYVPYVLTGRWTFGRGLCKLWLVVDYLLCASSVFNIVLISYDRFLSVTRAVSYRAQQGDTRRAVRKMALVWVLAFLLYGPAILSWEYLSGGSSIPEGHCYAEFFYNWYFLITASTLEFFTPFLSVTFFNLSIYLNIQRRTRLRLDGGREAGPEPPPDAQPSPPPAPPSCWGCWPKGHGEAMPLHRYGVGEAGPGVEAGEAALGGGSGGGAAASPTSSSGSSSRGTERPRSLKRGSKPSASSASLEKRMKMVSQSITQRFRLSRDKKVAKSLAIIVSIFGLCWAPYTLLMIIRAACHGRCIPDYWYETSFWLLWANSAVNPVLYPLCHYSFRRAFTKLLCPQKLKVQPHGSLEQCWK

SMILES | Ki
N#Cc1ccc(-c2ccc3oc(CCN4CCCCCC4)cc3c2)cc1 | 44 nM
CC1CCN(CCc2cc3cc(-c4ccc(C(=O)N5CCOCC5)cc4)ccc3o2)CC1 | 43 nM
O=C(c1ccc(-c2ccc3oc(CCN4CCCCCC4)cc3c2)cc1)N1CCOCC1 | 10 nM
O=C(c1ccc(-c2ccc3oc(CCN4CCC(O)C4)cc3c2)nc1)N1CCOCC1 (stereo not drawn) | 67 nM
N#Cc1ccc(-c2ccc3oc(CCn4ccnc4)cc3c2)cc1 | 2200 nM
N#Cc1ccc(-c2ccc3oc(CCN4CCC[C@@H]4CO)cc3c2)cc1 | 160 nM
C[C@@H]1CC[C@@H](C)N1CCc1cc2cc(-c3ccc(C(=O)N4CCOCC4)cc3)ccc2o1 | 6.9 nM
N#Cc1ccc(-c2ccc3oc(CCN4CCC[C@H]4CO)cc3c2)cc1 | 26 nM
